Reference: US20250034112A1, “IMPROVED SELECTIVE JAK2 INHIBITORS AND METHODS OF USE” (Yale University, priority 2021, published 2025)

Amino acid sequences for entries named in this document (tags omitted). Residues count along the entry.
UniProt O60674, 536-812 W659A/W777A/F794H: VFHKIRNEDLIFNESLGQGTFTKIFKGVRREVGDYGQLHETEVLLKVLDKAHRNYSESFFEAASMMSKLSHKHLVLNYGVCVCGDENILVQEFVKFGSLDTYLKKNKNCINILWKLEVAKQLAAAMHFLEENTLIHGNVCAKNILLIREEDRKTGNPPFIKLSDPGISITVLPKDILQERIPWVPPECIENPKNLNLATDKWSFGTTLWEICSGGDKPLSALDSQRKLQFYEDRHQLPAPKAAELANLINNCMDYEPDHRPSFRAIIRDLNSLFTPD

Key:
[1] = system: STAT5 phosphorylation in HEL cells (JAK2 V617F mutant); assay: Western blot of STAT5 phosphorylation in HEL cells; assay type: cell-based, Human; details: concentrations up to 75-80 μM after 3-h incubation
WT JAK2 JH2 = WT JAK2 JH2 (Homo sapiens (Human), UniProt O60674, F794H/W659A/W777A); assay: Competitive fluorescence polarization (FP) binding assay, WT JAK2 JH2; details: WT JH2 over WT JH1, Table 3

Nc1nc(Oc2ccc(NC(=O)N[C@@H](CC(=O)c3ccccc3)C(=O)O)cc2)c2cc[nH]c2n1 [Cmpd 21, (S)-2-(3-(4-((2-amino-7H-pyrrolo[2,3-d]pyrimidin-4-yl)oxy)phenyl)ureido)-4-oxo-4-phenylbutanoic acid]
Inhibition of phosphorylation of STAT5, HEL cells, up to 75-80 μM [1]: no inhibition

Nc1nc(Nc2ccc(S(N)(=O)=O)cc2)nn1C(=O)Nc1ccc(-c2ccnc(C(=O)O)c2)cc1 [Compound 6, 4-(4-(5-amino-3-((4-sulfamoylphenyl)amino)-1H-1,2,4-triazole-1-carboxamido)phenyl)picolinic acid]
JH2/JH1 Selectivity (WT JAK2 JH2): 20x

Nc1nc(Nc2ccc(S(N)(=O)=O)cc2)nn1C(=O)Nc1ccc(-c2cc(OCc3ccccc3)cc(C(=O)O)c2)cc1 [Compound 12, 4′-(5-amino-3-((4-sulfamoylphenyl)amino)-1H-1,2,4-triazole-1-carboxamido)-5-(benzyloxy)-[1,1′-biphenyl]-3-carboxylic acid]
JH2/JH1 Selectivity (WT JAK2 JH2): 45x

CNC(=O)c1ccc(Nc2nc(N)n(C(=O)Nc3ccc(-c4cc(OCc5ccccc5)cc(C(=O)O)c4)cc3)n2)cc1 [Compound 14, 4′-(5-amino-3-((4-(methylcarbamoyl)phenyl)amino)-1H-1,2,4-triazole-1-carboxamido)-5-(benzyloxy)-[1,1′-biphenyl]-3-carboxylic acid]
JH2/JH1 Selectivity (WT JAK2 JH2): 134x
